# From patent US8865750B2, “Small molecule inhibitors of RGS proteins” (The Regents of The University of Michigan, priority 2011, dated 2014)
# Amino acid sequences for entries named in this document (tags omitted).
# UniProt P57771, whole entry: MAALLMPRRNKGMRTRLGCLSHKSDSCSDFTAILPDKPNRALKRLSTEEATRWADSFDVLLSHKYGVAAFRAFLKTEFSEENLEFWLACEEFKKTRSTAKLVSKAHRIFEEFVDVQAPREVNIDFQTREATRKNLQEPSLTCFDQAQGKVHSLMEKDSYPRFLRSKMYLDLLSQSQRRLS
# Experiments:
# HEK293 cells = test: Calcium mobilization induced by compound alone; settings: 10 μM compound, percentage of effect of 10 μM CCG-50014;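 note: percent of response to 10 µM reference CCG-50014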
# RGS8 = RGS8 (Homo sapiens (Human), UniProt P57771); test: FCPIA: Gαo binding to RGS8
compound,measurement,setting,value
CC(C)(C)c1ccc(-n2c(=O)sn(-c3cccc(Cl)c3)c2=O)cc1,Calcium transient (% 50014),HEK293 cells,31.8 % 50014
same,RGS8 Hill Slope,RGS8; Table 3,−0.58
same,IC50,"RGS8; read-out: RGS8 IC50, Table 3, duplex FCPIA, average of two experiments",32.2 µM
